Assay results reported in PubChem BioAssay (EPA / NIEHS).
The list shows a part of the results, in another mix than the full data. Calls of active or inactive are those of the source. How the source made its calls: active means hit-call score of the fitted dose curve at least 0.9, where 1 is the maximum; inactive means score below 0.9.

Experiment: ATG_M_19_CIS: Attagene CIS-FACTORIAL HepG2 Assay for M19 Transcription Factor (Internal Marker) (AID 2282939)
Settings: HepG2 Attagene CIS-FACTORIAL M19 internal marker reporter; actives raise or lower the signal
Protocol: ATG_CIS is a cell-based, multiplexed-readout assay that uses HepG2, a human liver cell line, with measurements taken at 24 hours after chemical dosing in a 24-well plate.ATG_M_19_CIS is one of 52 assay component(s) measured or calculated from the ATG_CIS assay. It is designed to make measurements of mRNA induction, a form of inducible reporter, as detected with fluorescence intensity signals by Reverse transcription polymerase chain reaction (RT-PCR) and Capillary electrophoresis technology.Data from the assay component ATG_M_19_CIS was analyzed into 1 assay endpoint. This assay endpoint, ATG_M_19_CIS, was analyzed with bidirectional fitting relative to DMSO as the negative control and baseline of activity. Using a type of inducible reporter, measures of mRNA for gain or loss-of-signal activity can be used to understand the background control at the transcription factor-level as they relate to the gene . Furthermore, this assay endpoint can be referred to as a secondary readout, because this assay has produced multiple assay endpoints where this one serves a background control function. To generalize the intended target to other relatable targets, this assay endpoint is annotated to the background measurement intended target family, where the subfamily is internal marker.
Human liver HepG2 cells are transiently transfected with multiple reporter transcription units (MRTUs) in 6-well plates using FuGene 6 reagent (Roche; 3 ml FuGene/1 mg DNA). The MRTU constructs are regulated by a cis-regulating element (promoter). […] A major difference between the CIS and TRANS system is that in CIS activities of endogenous TFs are measured, whereas the TRANS assay evaluates changes in activities of exogenous, chimeric NR-Gal4 proteins. […] At the end of 24 hour incubation, total RNA was isolated using TriZol reagent (Invitrogen). The isolated RNA is then reverse-transcribed using oligo(dT) primer and Mo-MLV reverse transcriptase (Invitrogen) with DNAse I (Ambion) treatment for 30 min. The one-tenth of the produced cDNA was amplified by PCR using Taq DNA polymerase (Invitrogen) and two reporter sequence-specific primers. The PCR products were fluorescently labeled by primer extension with 6-arboxyfluorescein (6-FAM) 5'-labeled reporter sequence-specific primer (2 min at 95 C, 20 s at 68 C and 10 min at 72 C) and these products were digested with 5U of HpaI (New England Biolabs) for 2h at 37 C. The fragments were purified using Qiaquick PCR columns (Qiagen), analyzed on an ABI 3130xL genetic analyzer (Applied Biosystems) with peak positions identified by using a set of X-rhodamine (ROX)-labeled MapMarker1000 molecular weight standards (BioVentures). The raw capillary electrophoresis data was processed using Attagraph software (Attagene).

Structure (SMILES) | outcome
COP(C)(=O)OC | inactive
CC(C)N(CCO)C(C)C | inactive
Cc1ccc([N+](=O)[O-])cc1[N+](=O)[O-] | inactive
CN(C)CCCl | inactive
COc1ccc([N+](=O)[O-])cc1[N+](=O)[O-] | inactive
Cc1ccc([N+](=O)[O-])c([N+](=O)[O-])c1 | inactive
O=[N+]([O-])c1cccc([N+](=O)[O-])c1 | inactive
Cc1cccc([N+](=O)[O-])c1[N+](=O)[O-] | inactive
O=[N+]([O-])OCC(CO[N+](=O)[O-])(CO[N+](=O)[O-])CO[N+](=O)[O-] | inactive
N#CBr | inactive
Cc1c([N+](=O)[O-])cccc1[N+](=O)[O-] | inactive
CC(C)OP(C)(=O)OC(C)C | inactive
